Patent US6727076B2 (priority 1995, dated 2004)
Where two headings read alike, the source gives them in different places.

Legend:
E. coli MG1655 [1] = assay: Nitrogen source testing, EN panel; type: cell-based; conditions: 3.0 mM nitrogen source replacing NH4Cl; 35° C., 48 hours
E. coli MG1655 [2] = assay: Phosphorus and sulfur source testing, EPS panel; type: cell-based; conditions: 35° C., 48 hours; for suitability as phosphorus source (growth, purple color): 1.0 mM phosphorus source replacing NaH2PO4; for suitability as sulfur source (growth, purple color): 100 μM sulfur source replacing Na2SO4
T. harzianum DAOM 190830 = assay: Carbon source utilization in SF-N MicroPlate with redox purple; type: cell-based, Trichoderma harzianum; conditions: redox purple 200 μM, 0.25% Gelrite, 30° C., approximately 24 hours
[3] = tested on: E. coli 287 (ATCC #11775)
[4] = tested on: E. coli strain 14443 (MG1655 (FB426)); assay: Carbon source utilization in Biolog ES MicroPlate; type: cell-based; conditions: PPS inoculum, 35° C., 24 hours; further: key: '+' indicates that the organism tested was capable of utilizing the carbon source listed; '−' indicates that the organism tested was not capable of utilizing the carbon source listed; 'w' indicates weak positive reactions
[5] = tested on: E. coli strain 14444 (MG1655 xylA); assay: Carbon source utilization in Biolog ES MicroPlate; type: cell-based; conditions: PPS inoculum, 35° C., 24 hours; further: key: '+' indicates that the organism tested was capable of utilizing the carbon source listed; '−' indicates that the organism tested was not capable of utilizing the carbon source listed; 'w' indicates weak positive reactions
[6] = tested on: E. coli strain 14445 (MG1655 himA); assay: Carbon source utilization in Biolog ES MicroPlate; type: cell-based; conditions: PPS inoculum, 35° C., 24 hours; further: key: '+' indicates that the organism tested was capable of utilizing the carbon source listed; '−' indicates that the organism tested was not capable of utilizing the carbon source listed; 'w' indicates weak positive reactions
[7] = tested on: E. coli strain 6320 (W3110); assay: Carbon source utilization in Biolog ES MicroPlate; type: cell-based; conditions: PPS inoculum, 35° C., 24 hours; further: key: '+' indicates that the organism tested was capable of utilizing the carbon source listed; '−' indicates that the organism tested was not capable of utilizing the carbon source listed; 'w' indicates weak positive reactions
[8] = tested on: E. coli strain 6321 (MG1655); assay: Carbon source utilization in Biolog ES MicroPlate; type: cell-based; conditions: PPS inoculum, 35° C., 24 hours
[9] = tested on: E. coli strain 6322 (EMG2 (K12, λF+)); assay: Carbon source utilization in Biolog ES MicroPlate; type: cell-based; conditions: PPS inoculum, 35° C., 24 hours
[10] = all three redox indicators (redox purple, tetrazolium violet, resazurin), both 0.85% NaCl and 0.2% carrageenan suspensions, 35° C., approximately 16 hours

δ-amino-n-valeric acid
suitability as nitrogen source (growth, purple color) (E. coli MG1655 [1]): positive

phosphate
suitability as phosphorus source (growth, purple color) (E. coli MG1655 [2]): positive

thymidine 3′:5′-cyclic monophosphate
suitability as phosphorus source (growth, purple color) (E. coli MG1655 [2]): not suitable

uridine 3′:5′-cyclic monophosphate
suitability as phosphorus source (growth, purple color) (E. coli MG1655 [2]): not suitable

adenosine 2′:3′-cyclic monophosphate
suitability as phosphorus source (growth, purple color) (E. coli MG1655 [2]): not suitable

i-erythritol
carbon source utilization result (T. harzianum DAOM 190830): positive
carbon source utilization result [3, 10]: negative

Acetoactetic acid
carbon source utilization [4]: −
carbon source utilization [5]: −
carbon source utilization [6]: −
carbon source utilization [7]: w
carbon source utilization [8]: −
carbon source utilization [9]: −

cytidine 3′:5′-cyclic monophosphate
suitability as phosphorus source (growth, purple color) (E. coli MG1655 [2]): not suitable

cytidine 2′:3′-cyclic monophosphate
suitability as phosphorus source (growth, purple color) (E. coli MG1655 [2]): positive

Tween-40
carbon source utilization [4]: −
carbon source utilization [5]: −
carbon source utilization [6]: −
carbon source utilization [7]: w
carbon source utilization [8]: w
carbon source utilization [9]: w
carbon source utilization result (T. harzianum DAOM 190830): positive
carbon source utilization result [3, 10]: positive

parabanic acid
suitability as nitrogen source (growth, purple color) (E. coli MG1655 [1]): not suitable

trimetaphosphate
suitability as phosphorus source (growth, purple color) (E. coli MG1655 [2]): positive

α-hydroxy-glutaric acid γ-lactone
carbon source utilization [4]: −
carbon source utilization [5]: −
carbon source utilization [6]: −
carbon source utilization [7]: −
carbon source utilization [8]: w
carbon source utilization [9]: −

M-inositol
carbon source utilization [4]: −
carbon source utilization [5]: −
carbon source utilization [6]: −
carbon source utilization [7]: −
carbon source utilization [8]: −
carbon source utilization [9]: −
carbon source utilization result ([3]; redox purple, both 0.85% NaCl and 0.2% carrageenan suspensions): negative
carbon source utilization result ([3]; resazurin, 0.2% carrageenan suspension): positive/negative
carbon source utilization result ([3]; resazurin, 0.85% NaCl suspension): negative
carbon source utilization result ([3]; tetrazolium violet, both 0.85% NaCl and 0.2% carrageenan suspensions): negative

2-aminoethyl phosphonate
suitability as phosphorus source (growth, purple color) (E. coli MG1655 [2]): weak positive

uridine 2′:3′-cyclic monophosphate
suitability as phosphorus source (growth, purple color) (E. coli MG1655 [2]): positive

dithiophosphate
suitability as sulfur source (growth, purple color) (E. coli MG1655 [2]): positive
suitability as phosphorus source (growth, purple color) (E. coli MG1655 [2]): positive

M-tartaric acid
carbon source utilization [4]: −
carbon source utilization [5]: −
carbon source utilization [6]: −
carbon source utilization [7]: −
carbon source utilization [8]: −
carbon source utilization [9]: −

sulfate
suitability as sulfur source (growth, purple color) (E. coli MG1655 [2]): positive

nitrophenyl phosphate
suitability as phosphorus source (growth, purple color) (E. coli MG1655 [2]): not suitable

2′-deoxyglucose 6-phosphate
suitability as phosphorus source (growth, purple color) (E. coli MG1655 [2]): positive
